This passage reports Potency, activity (max response) and activity change, negative = viability loss results from PubChem BioAssay (NCATS).

The nature of assay [1]: Viability qHTS for spleen associated tyrosine kinase inhibitor (SYKi) drug resistant MV4-11 cells (AID 1963824). Also: potency is read from the fitted curve at half-maximal effect; nearly all actives have a fitted effect of over 35% in size. The settings on record: SYKi-resistant MV4-11 viability, CellTiter-Glo, 72 h. The source says: Department of Medicine, Hematology/Oncology
University Hospital Frankfurt, Germany.
Trials have shown promising clinical activity of the selective SYK inhibitor entospletinib in patients with high expressing HOXA9/MEIS1 acute leukemias. As the development of resistance mechanisms is a common problem in the use of targeted drugs, we performed a chemical library screen to identify drug sensitivities in SYK inhibitor resistant AML cells. […] Glucocorticoids are potent immunosuppressants which work in part by inhibiting the transcription of cytokine genes.
Described herein is a viability screen to look for activity in the SYK inhibitor drug resistant cell line against four NCATS compound libraries (MIPE 5.0, NPC, NPACT, and Kinase) totaling 11372 compounds. Active hits were reacquired for confirmation and further secondary assay testing.
SEQUENCE No. (e.g., 1, 2, 3, etc.); […] (e.g., Cells, Incubation, Reagent, etc.); VALUE; DESCRIPTION.
1; Media; 2uL; white, solid-bottom Corning assay plate.
2; Compounds; 23nL; Echo acoustic dispenser. […]
7; Detection; Luminescence; ViewLux plate reader (PerkinElmer). […]
1. Quantitative high-throughput screening (qHTS) of small molecule compounds was conducted on drug resistant SYKi MV4-11 cell line. […]
5. Viability was assessed by adding 3uL of CellTiter-Glo detection reagent (Promega). […]
7. Luminescence was measured on a ViewLux plate reader (PerkinElmer).
On the technique in general: Quantitative high-throughput screening tests each substance at several concentrations.

Assay [2] can be described thus: Cellular viability qHTS for adrenocortical cancer (ACC) cell line SW-13 (AID 1963989).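 Also: cells grown in serum-free medium with ITS supplement; % is scaled to controls: 0 for no effect and ±100 for the full control effect; nearly all actives have a fitted effect of over 65% in size.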 The settings on record: SW-13 ACC cells viability, CellTiter-Glo, 48 h; stronger effect = lower value. The procedure, abridged:
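SW-13 cells in ITS-supplemented serum-free DMEM were plated overnight, then exposed for 48 h at 37C to compound titrations (up to 46 uM final). Viability was read by CellTiter-Glo luminescence; four-parameter logistic fits gave IC50 and efficacy.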

The nature of assay [3]: Cellular viability qHTS for adrenocortical cancer (ACC) cell line NCI-H295R (AID 1963990).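 Also: 0% = DMSO only wells and -100% = full killing with cytotoxic reference compound; nearly all actives have a fitted effect of over 60% in size.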 The settings on record: CellTiter-Glo ATP luminescence, 48 h; at 92.7 µM (top of the series). The procedure, abridged:
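Luminescent ATP read-out (CellTiter-Glo, 20 min RT) after 48 h drug exposure of NCI-H295R cells; a titration up to 46 uM final. Data normalized to doxorubicin (100% inhibition) and DMSO (0%); 4-parameter fit gives IC50, max response.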

Values joined by “and” are separate entries in the source; they are usually repeats but may differ in a detail not shown here. Equal entries are not always repeated. Only a part is listed here, and it is no random draw. Results filed as inconclusive are left out. Active and inactive are the calls of the source. Calls follow the shape of the dose curve; as a rule, active = well fitted curve in the direction sought with a large enough effect; inconclusive = small, poorly fitted or top-dose-only effect, or another doubt; inactive = no such curve, though single readings can be large; an effect the other way counts as inactive or inconclusive.

In the case of `CCC(=O)N(c1ccccc1)C1(COC)CCN(CCc2cccs2)CC1`, the Potency in assay [1] is active: 38.6 µM. As for `CCC(=O)N(c1ccccc1)C1(COC)CCN(CCn2nnn(CC)c2=O)CC1`, the activity (max response) in assay [2] was inactive: -6.46%. Further, the activity change, negative = viability loss in assay [3] is inactive: -10.5%.

Turning to `CN(CCCl)CCCl`, in assay [2], the activity (max response) was inactive: 2.06% and inactive: -11.9%.
